# Results published in patent publication US20240139188A1, “Arylamide Compounds For Treatment And Prevention Of Fungal Infections” (priority 2022, published 2024).
# Test system: A. fumigatus wild-type, ΔmpkA, and ΔcalA strains
# Assay: Fungistatic activity of caspofungin, plating after 24 hours
# Details: caspofungin 0.2 μg/ml
smiles,measurement,value
"CC[C@H](C)C[C@H](C)CCCCCCCCC(=O)N[C@H]1C[C@@H](O)[C@@H](NCCN)NC(=O)[C@@H]2[C@@H](O)CCN2C(=O)[C@H]([C@H](O)CCN)NC(=O)[C@H]([C@H](O)[C@@H](O)c2ccc(O)cc2)NC(=O)[C@@H]2C[C@@H](O)CN2C(=O)[C@H]([C@@H](C)O)NC1=O [CAS, caspofungin]",type of activity,fungistatic activity
